Amino acid sequences for entries named in this document (tags omitted). A change or cut given only in a name is not applied to a line headed by its entry. Residues count along the entry.
UniProt P29323, 19-1055: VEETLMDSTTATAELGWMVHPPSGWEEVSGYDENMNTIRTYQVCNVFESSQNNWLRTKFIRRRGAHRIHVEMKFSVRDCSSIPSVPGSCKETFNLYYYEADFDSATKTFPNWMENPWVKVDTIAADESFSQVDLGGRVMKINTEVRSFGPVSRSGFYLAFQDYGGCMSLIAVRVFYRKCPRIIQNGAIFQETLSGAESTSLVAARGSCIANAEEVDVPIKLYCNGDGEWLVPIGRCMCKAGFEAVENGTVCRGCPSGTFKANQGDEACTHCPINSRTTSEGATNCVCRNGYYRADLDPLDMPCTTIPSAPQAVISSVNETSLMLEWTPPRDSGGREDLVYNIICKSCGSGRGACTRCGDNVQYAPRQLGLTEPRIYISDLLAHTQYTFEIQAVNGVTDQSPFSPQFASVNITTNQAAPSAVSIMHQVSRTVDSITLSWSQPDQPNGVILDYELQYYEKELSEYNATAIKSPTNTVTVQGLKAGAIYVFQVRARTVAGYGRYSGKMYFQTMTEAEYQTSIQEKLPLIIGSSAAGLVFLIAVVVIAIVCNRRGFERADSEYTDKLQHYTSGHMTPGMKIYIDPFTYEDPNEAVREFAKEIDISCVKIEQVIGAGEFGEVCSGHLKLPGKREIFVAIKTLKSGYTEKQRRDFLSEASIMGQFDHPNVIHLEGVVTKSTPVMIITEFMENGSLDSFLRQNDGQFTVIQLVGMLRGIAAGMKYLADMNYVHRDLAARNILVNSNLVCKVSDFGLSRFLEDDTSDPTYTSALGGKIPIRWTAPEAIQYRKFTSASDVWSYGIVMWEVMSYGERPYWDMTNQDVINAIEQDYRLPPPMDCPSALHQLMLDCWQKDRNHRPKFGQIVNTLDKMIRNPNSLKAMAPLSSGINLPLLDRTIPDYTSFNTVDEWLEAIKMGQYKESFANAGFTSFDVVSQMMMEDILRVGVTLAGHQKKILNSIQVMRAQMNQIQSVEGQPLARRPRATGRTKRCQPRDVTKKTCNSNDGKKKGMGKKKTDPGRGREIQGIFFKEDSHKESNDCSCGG
UniProt Q9Y4K4: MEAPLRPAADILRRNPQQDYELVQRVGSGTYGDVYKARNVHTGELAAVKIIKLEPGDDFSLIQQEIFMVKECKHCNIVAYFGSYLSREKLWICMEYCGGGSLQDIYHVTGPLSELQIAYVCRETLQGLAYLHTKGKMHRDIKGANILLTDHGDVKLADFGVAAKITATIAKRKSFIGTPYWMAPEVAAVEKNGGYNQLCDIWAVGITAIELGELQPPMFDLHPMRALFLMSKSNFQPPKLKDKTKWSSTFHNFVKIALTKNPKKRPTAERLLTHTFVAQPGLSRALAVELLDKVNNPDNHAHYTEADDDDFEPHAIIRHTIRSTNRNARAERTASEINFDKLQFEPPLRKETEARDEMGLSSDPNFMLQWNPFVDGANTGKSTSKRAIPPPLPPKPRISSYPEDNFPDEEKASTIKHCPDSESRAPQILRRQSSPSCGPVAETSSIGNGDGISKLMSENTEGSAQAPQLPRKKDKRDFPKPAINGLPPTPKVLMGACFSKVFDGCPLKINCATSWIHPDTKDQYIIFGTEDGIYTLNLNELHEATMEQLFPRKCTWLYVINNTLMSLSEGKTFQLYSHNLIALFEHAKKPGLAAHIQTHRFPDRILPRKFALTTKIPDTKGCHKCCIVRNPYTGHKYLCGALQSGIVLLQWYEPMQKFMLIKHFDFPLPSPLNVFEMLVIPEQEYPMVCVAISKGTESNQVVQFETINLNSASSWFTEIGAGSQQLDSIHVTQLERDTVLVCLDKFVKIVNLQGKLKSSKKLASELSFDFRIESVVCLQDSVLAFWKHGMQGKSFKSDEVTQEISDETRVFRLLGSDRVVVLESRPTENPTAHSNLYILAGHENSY
UniProt P36894, 24-532: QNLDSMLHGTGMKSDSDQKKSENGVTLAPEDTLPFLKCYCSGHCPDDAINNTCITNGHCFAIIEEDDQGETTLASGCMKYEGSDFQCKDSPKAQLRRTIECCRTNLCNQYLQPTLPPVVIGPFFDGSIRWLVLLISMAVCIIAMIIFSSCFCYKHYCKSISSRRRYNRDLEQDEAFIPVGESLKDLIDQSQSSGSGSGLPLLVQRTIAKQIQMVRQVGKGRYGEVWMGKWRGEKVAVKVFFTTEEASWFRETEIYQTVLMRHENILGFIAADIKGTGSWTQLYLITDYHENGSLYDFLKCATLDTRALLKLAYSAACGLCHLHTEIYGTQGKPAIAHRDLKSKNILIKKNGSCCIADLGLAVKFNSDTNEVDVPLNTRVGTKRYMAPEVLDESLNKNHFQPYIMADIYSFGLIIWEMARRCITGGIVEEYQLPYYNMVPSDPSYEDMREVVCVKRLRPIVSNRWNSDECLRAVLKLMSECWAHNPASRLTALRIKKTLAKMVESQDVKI
UniProt P21802, 22-821: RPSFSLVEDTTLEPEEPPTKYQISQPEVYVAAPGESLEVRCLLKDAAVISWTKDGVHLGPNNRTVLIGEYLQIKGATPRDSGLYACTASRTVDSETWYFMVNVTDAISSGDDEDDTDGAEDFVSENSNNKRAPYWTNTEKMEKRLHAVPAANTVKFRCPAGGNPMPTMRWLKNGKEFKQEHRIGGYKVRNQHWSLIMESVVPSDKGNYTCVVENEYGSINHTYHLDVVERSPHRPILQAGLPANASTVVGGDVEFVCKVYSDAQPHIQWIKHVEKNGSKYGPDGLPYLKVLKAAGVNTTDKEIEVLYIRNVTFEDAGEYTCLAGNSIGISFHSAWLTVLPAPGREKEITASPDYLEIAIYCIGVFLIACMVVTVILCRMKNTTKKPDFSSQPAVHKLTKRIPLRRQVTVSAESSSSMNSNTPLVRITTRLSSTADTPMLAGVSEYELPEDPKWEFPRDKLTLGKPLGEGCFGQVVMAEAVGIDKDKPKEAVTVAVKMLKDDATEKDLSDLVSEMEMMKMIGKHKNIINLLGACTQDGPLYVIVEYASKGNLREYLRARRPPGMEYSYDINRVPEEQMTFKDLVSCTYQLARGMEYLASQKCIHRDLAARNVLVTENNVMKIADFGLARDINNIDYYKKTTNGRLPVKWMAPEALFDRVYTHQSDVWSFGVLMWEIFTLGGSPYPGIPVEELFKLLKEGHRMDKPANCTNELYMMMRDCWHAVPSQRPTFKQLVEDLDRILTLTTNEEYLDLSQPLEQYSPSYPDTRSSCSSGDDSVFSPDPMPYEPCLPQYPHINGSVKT
UniProt Q16584: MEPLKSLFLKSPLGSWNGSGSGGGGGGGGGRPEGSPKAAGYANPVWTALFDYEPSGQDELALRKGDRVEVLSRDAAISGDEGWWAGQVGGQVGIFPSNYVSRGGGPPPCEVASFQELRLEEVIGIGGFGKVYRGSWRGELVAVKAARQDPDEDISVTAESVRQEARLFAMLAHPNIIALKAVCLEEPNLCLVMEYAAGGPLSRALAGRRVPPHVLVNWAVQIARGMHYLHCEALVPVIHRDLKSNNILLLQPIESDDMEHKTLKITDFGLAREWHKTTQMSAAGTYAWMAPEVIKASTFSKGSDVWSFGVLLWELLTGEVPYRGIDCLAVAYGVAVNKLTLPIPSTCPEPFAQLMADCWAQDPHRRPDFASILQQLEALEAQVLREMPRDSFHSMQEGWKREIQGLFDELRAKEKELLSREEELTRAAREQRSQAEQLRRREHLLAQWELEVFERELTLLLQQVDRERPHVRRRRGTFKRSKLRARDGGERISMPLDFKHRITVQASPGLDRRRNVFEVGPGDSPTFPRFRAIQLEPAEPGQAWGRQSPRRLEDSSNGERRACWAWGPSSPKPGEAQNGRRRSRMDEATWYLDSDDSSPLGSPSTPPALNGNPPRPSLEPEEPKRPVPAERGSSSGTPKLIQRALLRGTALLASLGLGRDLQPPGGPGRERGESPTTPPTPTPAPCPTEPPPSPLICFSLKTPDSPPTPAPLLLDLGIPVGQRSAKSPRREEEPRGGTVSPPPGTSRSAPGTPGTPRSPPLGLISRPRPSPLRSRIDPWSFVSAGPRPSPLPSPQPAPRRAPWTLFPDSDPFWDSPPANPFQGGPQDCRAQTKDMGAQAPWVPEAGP
UniProt P07949, 29-1114: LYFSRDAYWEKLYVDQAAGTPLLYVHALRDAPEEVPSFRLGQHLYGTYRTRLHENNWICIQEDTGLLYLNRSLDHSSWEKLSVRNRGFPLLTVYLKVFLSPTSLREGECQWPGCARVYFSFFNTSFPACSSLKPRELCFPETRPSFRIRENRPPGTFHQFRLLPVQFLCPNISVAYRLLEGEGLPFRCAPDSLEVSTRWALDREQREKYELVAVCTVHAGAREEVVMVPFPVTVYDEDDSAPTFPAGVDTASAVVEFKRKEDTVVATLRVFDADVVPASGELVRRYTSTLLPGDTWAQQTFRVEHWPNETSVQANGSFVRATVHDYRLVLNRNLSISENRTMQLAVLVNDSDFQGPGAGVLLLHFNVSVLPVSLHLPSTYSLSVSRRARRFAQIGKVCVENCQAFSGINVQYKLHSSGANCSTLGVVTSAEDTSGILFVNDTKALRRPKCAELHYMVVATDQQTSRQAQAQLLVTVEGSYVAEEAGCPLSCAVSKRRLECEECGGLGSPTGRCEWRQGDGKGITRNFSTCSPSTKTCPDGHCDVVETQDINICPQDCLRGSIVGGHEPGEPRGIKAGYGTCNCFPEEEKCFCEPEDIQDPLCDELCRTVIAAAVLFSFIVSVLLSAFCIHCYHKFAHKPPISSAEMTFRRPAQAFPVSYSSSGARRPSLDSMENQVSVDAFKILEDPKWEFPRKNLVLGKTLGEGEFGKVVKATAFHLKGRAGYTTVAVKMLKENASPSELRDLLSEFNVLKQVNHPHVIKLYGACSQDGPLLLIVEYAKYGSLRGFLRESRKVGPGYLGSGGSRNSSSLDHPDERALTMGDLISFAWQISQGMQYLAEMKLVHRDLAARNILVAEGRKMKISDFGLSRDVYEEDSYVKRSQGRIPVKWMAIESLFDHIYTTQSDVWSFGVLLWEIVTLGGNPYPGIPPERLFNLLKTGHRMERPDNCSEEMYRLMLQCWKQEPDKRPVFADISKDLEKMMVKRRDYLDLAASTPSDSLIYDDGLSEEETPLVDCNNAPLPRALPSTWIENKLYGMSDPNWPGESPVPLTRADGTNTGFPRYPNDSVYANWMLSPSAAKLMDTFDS
UniProt Q15375, 28-998: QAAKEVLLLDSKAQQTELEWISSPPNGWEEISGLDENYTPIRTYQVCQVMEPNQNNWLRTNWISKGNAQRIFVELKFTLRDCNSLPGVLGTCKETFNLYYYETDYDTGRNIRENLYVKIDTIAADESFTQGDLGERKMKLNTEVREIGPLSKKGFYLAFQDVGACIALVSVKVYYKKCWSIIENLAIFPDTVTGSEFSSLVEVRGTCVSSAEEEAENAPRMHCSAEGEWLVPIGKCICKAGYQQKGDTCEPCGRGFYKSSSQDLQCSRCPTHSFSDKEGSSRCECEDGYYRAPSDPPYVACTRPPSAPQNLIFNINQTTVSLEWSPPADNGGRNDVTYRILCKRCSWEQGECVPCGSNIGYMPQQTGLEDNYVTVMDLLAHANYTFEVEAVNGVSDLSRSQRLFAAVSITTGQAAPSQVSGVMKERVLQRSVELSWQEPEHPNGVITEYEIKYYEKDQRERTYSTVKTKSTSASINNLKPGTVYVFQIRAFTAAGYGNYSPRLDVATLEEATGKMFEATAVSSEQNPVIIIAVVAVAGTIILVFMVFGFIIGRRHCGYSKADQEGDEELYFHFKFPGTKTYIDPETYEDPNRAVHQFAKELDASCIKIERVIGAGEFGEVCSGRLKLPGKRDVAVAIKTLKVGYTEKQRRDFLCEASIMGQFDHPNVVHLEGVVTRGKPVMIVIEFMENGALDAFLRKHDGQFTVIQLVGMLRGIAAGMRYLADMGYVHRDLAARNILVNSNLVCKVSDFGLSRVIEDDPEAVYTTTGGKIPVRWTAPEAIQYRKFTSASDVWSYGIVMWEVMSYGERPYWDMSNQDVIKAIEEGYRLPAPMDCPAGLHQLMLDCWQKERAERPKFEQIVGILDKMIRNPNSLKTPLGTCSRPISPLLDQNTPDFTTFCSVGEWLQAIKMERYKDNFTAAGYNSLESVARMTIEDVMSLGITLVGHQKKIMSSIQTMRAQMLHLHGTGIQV
UniProt Q13705, 19-512: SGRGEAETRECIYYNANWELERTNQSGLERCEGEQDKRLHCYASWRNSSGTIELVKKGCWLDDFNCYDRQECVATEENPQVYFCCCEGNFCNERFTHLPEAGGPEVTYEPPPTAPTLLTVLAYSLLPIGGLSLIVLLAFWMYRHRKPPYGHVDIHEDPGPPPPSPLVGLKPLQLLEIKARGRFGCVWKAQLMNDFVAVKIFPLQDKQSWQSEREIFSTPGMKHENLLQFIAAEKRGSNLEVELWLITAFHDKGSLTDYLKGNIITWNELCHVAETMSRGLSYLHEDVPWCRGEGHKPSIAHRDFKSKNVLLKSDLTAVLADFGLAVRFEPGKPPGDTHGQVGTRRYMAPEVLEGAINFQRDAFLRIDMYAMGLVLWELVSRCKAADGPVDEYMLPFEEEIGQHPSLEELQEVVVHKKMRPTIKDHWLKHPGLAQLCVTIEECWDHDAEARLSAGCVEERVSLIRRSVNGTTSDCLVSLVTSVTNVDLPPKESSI

According to patent US12139480B2, “5-thiazolecarboxamide kinase inhibitor and uses thereof” (iOmx Therapeutics AG, priority 2018, dated 2024):

Experiments:
EPHB2 = molecular target: T1, EPHB2 (Homo sapiens, UniProt P29323); assay: single-point (1 uM) inhibition assay (ProQinase Kinase Profiler); assay type: biochemical; conditions: read-out: Residual activity (%) at 1 uM
T1 construct: purchased ProQinase

MAP4K5 = molecular target: T2, MAP4K5 (Homo sapiens, UniProt Q9Y4K4); assay: as above; assay type: biochemical; conditions: read-out: Residual activity (%) at 1 uM
T2 construct: purchased ProQinase

PDGFR-alpha = molecular target: T3, PDGFR-alpha (Homo sapiens, UniProt P16234); assay: as above; assay type: biochemical; conditions: read-out: Residual activity (%) at 1 uM
T3 construct: purchased ProQinase

BMPR1A = molecular target: T4, BMPR1A (Homo sapiens, UniProt P36894); assay: as above; assay type: biochemical; conditions: read-out: Residual activity (%) at 1 uM
T4 construct: purchased ProQinase, Freiburg, Germany (Kinase Profiler panel)

EPHA6 = molecular target: T5, EPHA6 (Homo sapiens, UniProt Q9UF33); assay: as above; assay type: biochemical; conditions: read-out: Residual activity (%) at 1 uM
T5 sequence (Q9UF33 23-1036): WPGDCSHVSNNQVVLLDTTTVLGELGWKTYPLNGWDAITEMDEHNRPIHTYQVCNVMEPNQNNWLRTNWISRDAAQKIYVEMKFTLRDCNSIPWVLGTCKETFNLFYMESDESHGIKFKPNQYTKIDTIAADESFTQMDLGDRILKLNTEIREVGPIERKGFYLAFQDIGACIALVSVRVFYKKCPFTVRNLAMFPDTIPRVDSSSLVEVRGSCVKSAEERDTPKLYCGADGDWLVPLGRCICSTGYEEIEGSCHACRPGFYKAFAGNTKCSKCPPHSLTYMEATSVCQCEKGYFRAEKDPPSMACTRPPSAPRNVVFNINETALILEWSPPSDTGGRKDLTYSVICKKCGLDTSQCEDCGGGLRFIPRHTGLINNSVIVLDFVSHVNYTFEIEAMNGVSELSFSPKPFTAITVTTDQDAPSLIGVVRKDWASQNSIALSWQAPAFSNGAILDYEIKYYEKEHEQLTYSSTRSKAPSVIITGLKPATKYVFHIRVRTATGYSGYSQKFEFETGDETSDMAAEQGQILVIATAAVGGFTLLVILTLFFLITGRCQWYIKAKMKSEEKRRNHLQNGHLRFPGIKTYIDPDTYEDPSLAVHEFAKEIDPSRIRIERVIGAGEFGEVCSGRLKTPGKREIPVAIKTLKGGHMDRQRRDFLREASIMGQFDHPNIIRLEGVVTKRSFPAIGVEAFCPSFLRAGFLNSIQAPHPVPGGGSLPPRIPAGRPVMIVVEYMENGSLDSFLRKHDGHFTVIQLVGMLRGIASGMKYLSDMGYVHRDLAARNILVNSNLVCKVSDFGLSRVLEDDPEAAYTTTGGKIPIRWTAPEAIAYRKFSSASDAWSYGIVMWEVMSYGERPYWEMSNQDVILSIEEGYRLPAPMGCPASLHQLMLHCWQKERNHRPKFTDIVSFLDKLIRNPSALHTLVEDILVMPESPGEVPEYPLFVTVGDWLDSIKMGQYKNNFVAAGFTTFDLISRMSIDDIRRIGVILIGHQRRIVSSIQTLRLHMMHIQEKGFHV

ERBB2 = ERBB2 (Homo sapiens, UniProt P04626); assay: as above; assay type: biochemical; conditions: read-out: Residual activity (%) at 1 uM
FGF-R2 = FGF-R2 (Homo sapiens, UniProt P21802); assay: as above; assay type: biochemical; conditions: read-out: Residual activity (%) at 1 uM
MAP3K11 = MAP3K11 (Homo sapiens, UniProt Q16584); assay: as above; assay type: biochemical; conditions: read-out: Residual activity (%) at 1 uM
RET = molecular target: T6, RET (Homo sapiens, UniProt P07949); assay: as above; assay type: biochemical
T6 construct: purchased ProQinase, Freiburg, Germany (Kinase Profiler panel)

FLT3 = molecular target: T7, FLT3 (Homo sapiens, UniProt P36888); assay: as above; assay type: biochemical; conditions: read-out: Residual activity (%) at 1 uM
T7 construct: purchased ProQinase

EPH-A7 = EPH-A7 (Homo sapiens, UniProt Q15375); assay: as above; assay type: biochemical; conditions: read-out: Residual activity (%) at 1 uM
ACV-R2B = ACV-R2B (Homo sapiens, UniProt Q13705); assay: biochemical; conditions: read-out: Residual activity (%) at 1 uM

## Cc1nc(Nc2ncc(C(=O)Nc3c(Cl)ccnc3C)s2)cc(N2CCN(CCO)CC2)n1 [Compound B3, N-(4-chloro-2-methylpyridin-3-yl)-2-((6-(4-(2-hydroxyethyl)piperazin-1-yl)-2-methylpyrimidin-4-yl)amino)thiazole-5-carboxamide]
EPHB2
  remaining activity at 1 µM: 15%
MAP4K5
  remaining activity at 1 µM: 28%
PDGFR-alpha
  remaining activity at 1 µM: 18%
BMPR1A
  remaining activity at 1 µM: 83%
EPHA6
  remaining activity at 1 µM: 86%
ERBB2
  remaining activity at 1 µM: 84%
FGF-R2
  remaining activity at 1 µM: 74%
MAP3K11
  remaining activity at 1 µM: 61%
RET
  Residual activity (%) at 1 uM: 98%
FLT3
  remaining activity at 1 µM: 32%
EPH-A7
  remaining activity at 1 µM: 88%
ACV-R2B
  remaining activity at 1 µM: 57%
